Results: patent US20210145944

Tests used:
TDP-43 = TDP-43 (UniProt Q13148)
Tau-410 = Tau-410 (UniProt P10636)
Tau-441 (P301L) = Tau-441 (P301L) (UniProt P10636)
p-Tau-441 = p-Tau-441 (UniProt P10636)
α-synuclein = α-synuclein (UniProt P37840)

kallikrein-6 (KLK6) activated by lysyl endopeptidase
% digested at 0 min (TDP-43): 0% | % digested at 1 min (TDP-43): 1% | % digested at 5 min (TDP-43): 18% | % digested at 60 min (TDP-43): 29% | digestion on immobilized protease column (Table 4) (TDP-43): degraded | % digested at 0 min (Tau-410): 0% | % digested at 1 min (Tau-410): 31% | % digested at 5 min (Tau-410): 56% | % digested at 60 min (Tau-410): 74% | digestion on immobilized protease column (Table 4) (Tau-410): degraded | % digested at 0 min (Tau-441 (P301L)): 0% | % digested at 1 min (Tau-441 (P301L)): 68% | % digested at 5 min (Tau-441 (P301L)): 91% | % digested at 60 min (Tau-441 (P301L)): 79% | digestion on immobilized protease column (Table 4) (Tau-441 (P301L)): degraded | % digested at 0 min, band B1 (p-Tau-441): 0% | % digested at 0 min, band B2 (p-Tau-441): 0% | % digested at 1 min, band B1 (p-Tau-441): 74% | % digested at 1 min, band B2 (p-Tau-441): 63% | % digested at 5 min, band B1 (p-Tau-441): 98% | % digested at 5 min, band B2 (p-Tau-441): 95% | % digested at 60 min, band B1 (p-Tau-441): 97% | % digested at 60 min, band B2 (p-Tau-441): 92% | digestion on immobilized protease column (Table 4) (p-Tau-441): degraded | % digested at 0 min (α-synuclein): 0% | % digested at 1 min (α-synuclein): 77% | % digested at 5 min (α-synuclein): 80% | % digested at 60 min (α-synuclein): 72% | digestion on immobilized protease column (Table 4) (α-synuclein): degraded
